Where two headings read alike, the source gives them in different places.
Test system: Human Microvascular Endothelial Cells (HMVEC)
Settings: for endothelial cell migration (number of cells migrated per 10 high power fields): substance alone, 0.001 to 10.0 μM, 4 hours at 37° C.

With `C[C@@H](NC(=O)[C@@H](N)Cc1ccc(O)cc1)C(=O)NCC(=O)N(C)[C@@H](Cc1ccccc1)C(=O)NCCO` [DAMGO, [D-Ala^2, N-McPhe^4, Gly^5-ol]-enkephalin] the “endothelial cell migration (number of cells migrated per 10 high power fields)” value was “induced migration in a concentration dependent fashion”.

With `CN1CC[C@]23c4c5ccc(O)c4O[C@H]2[C@@H](O[C@@H]2O[C@H](C(=O)O)[C@@H](O)[C@H](O)[C@H]2O)C=C[C@H]3[C@H]1C5` [M6G, morphine 6-glucuronide] the “endothelial cell migration (number of cells migrated per 10 high power fields)” value was “exhibits a concentration-dependent effect on angiogenesis”.

With `C[N@+]1(CC2CC2)CC[C@]23c4c5ccc(O)c4O[C@H]2C(=O)CC[C@@]3(O)[C@H]1C5` [methylnaltrexone, N-methylnaltrexone] the “dose attenuating morphine-based endothelial cell migration (as low as)” value was 10^−8 μM, the “attenuation of morphine-induced endothelial cell migration” value (morphine constant at 0.1 μM, antagonist 0.001 to 10.0 μM, listed as MNTX) was “attenuated” and the “endothelial cell migration (number of cells migrated per 10 high power fields)” value (listed as MNTX) was “had no effect on endothelial cell migration”.

With `CN1CC[C@]23c4c5ccc(O)c4O[C@H]2[C@@H](O)C=C[C@H]3[C@H]1C5` [morphine] the “concentration causing endothelial cell migration” value was 100 ng/mL.
